Laboratory results reported in article PMC11374953, “Heteroaryl derivatives of suvorexant as OX1R selective PET ligand candidates: Cu-mediated ^18F-fluorination of boroxines, in vitro and initial in vivo evaluation” (EJNMMI Research, 2024).

Protein sequences, listed by entry. Tags and fused reporters are not part of them.
UniProt P08183, whole entry: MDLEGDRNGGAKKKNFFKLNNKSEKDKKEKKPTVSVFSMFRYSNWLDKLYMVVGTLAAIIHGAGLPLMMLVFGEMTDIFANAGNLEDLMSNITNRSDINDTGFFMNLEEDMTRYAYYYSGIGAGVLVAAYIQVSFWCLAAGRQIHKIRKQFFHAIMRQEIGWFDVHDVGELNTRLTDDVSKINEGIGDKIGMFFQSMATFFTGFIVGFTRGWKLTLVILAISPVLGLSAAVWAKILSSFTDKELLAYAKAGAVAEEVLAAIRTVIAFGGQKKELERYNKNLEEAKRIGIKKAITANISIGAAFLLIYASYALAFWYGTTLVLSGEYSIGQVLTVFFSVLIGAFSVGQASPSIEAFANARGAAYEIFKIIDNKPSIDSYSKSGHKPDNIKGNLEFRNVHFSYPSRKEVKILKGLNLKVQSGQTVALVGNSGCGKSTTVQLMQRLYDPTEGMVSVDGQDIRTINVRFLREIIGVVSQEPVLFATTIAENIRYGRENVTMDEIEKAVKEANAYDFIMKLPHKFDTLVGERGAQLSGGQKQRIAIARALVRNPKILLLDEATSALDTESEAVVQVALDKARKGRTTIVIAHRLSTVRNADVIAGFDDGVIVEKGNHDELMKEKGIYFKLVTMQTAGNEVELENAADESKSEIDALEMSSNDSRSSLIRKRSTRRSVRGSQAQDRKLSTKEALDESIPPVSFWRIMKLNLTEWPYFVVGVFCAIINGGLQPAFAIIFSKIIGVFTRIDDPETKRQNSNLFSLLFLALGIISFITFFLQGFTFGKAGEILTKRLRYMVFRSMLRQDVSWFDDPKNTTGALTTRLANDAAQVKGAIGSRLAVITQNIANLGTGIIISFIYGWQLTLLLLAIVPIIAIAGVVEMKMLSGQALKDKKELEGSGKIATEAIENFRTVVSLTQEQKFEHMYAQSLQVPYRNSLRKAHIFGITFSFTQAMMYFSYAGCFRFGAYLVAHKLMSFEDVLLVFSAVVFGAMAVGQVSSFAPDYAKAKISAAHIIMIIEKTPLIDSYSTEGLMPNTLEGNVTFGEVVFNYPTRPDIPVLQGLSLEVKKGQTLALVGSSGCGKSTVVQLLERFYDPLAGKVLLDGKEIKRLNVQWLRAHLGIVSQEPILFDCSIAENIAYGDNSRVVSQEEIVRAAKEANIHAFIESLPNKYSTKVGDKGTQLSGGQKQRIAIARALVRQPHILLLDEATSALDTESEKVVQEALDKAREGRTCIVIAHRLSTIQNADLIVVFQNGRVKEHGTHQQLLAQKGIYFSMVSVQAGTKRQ

Target: P-gp (Homo sapiens, UniProt P08183)
Assay: Basolateral-to-apical transport in Caco-2 monolayers with and without the P-gp inhibitor zosuquidar
Details: 5 µM compound, 1 µM ZSQ, 4 h, n = 8

effect of P-gp inhibitor zosuquidar (ZSQ) on basolateral-to-apical transport: significantly inhibited
Compound: C[C@H]1O[C@@H](O[C@H]2[C@@H](O)C[C@H](O[C@H]3[C@@H](O)C[C@H](O[C@H]4CC[C@@]5(C)[C@H](CC[C@@H]6[C@@H]5C[C@@H](O)[C@]5(C)[C@@H](C7=CC(=O)OC7)CC[C@]65O)C4)O[C@@H]3C)O[C@@H]2C)C[C@H](O)[C@@H]1O [digoxin, reference compound]
